Experimental data: patent publication US9447103B2, “Inauhzin analogues that induce P53, inhibit cell growth, and have antitumor activity” (Indiana University Research and Technology Corp., priority 2012, dated 2016)

Assay: In vivo biochemical toxicity assay (Alanine transferase, total bilirubin)
Details: i.p. 50 mg/kg once per day for two weeks, blood

CCC(Sc1nnc2c3ccccc3n(CCO)c2n1)C(=O)N1c2ccccc2Cc2ccccc21 (stereo not shown) [Compound 37, 1-(acridin-10(9H)-yl)-2-((5-(2-hydroxyethyl)-5H-[1,2,4]triazino[5,6-b]indol-3-yl)thio)butan-1-one]
toxicity: Alanine transferase and total bilirubin: without observed toxicity
